Experimental data: publication PMC2583361 (Critical reviews in biochemistry and molecular biology, 2008)
Like-named read-outs stand apart in the source and are kept apart here.

B1: χ subunit of the DNA polymerase III holoenzyme (natural protein, E. coli, UniProt P28905 1-147, looked up)
chain: MKNATFYLLDNDTTVDGLSAVEQLVCEIAAERWRSGKRVLIACEDEKQAYRLDEALWARPAESFVPHNLAGEGPRGGAPVEIAWPQKRSSSRRDILISLRTSFADFATAFTEVVDFVPYEDSLKQLARERYKAYRVAGFNLNTATWK
B2: Escherichia coli single-stranded DNA binding protein (SSB) (natural protein, E. coli, UniProt P0AGE0 1-178, looked up)
chain: MASRGVNKVILVGNLGQDPEVRYMPNGGAVANITLATSESWRDKATGEMKEQTEWHRVVLFGKLAEVASEYLRKGSQVYIEGQLRTRKWTDQSGQDRYTTEVVVNVGGTMQMLGGRQGGGAPAGGNIGGGQPQGGWGQPQQPQGGNQFSGGAQSRPQQSAPAAPSNEPPMDFDDDIPF

Legend:
Assay in all cases: ITC
[1] = molecular target: B2
[2] = molecular target: B2; remark: listed apart in the source
PriA DNA helicase [3] = molecular target: T1, PriA DNA helicase (E. coli, UniProt P17888)
PriA DNA helicase [4] = molecular target: T1, PriA DNA helicase; remark: listed apart in the source
PriA DNA helicase [5] = molecular target: T1, PriA DNA helicase; remark: listed apart in the source
PriA DNA helicase [6] = molecular target: T1, PriA DNA helicase; remark: listed apart in the source

Row | Binder | Ka [1] [M⁻¹] | dH [1] [kcal/mol] | stoichiometry N [1] | Ka [2] [M⁻¹] | dH [2] [kcal/mol] | stoichiometry N [2] | Ka (PriA DNA helicase [3]) [M⁻¹] | Ka (PriA DNA helicase [4]) [M⁻¹] | Ka (PriA DNA helicase [5]) [M⁻¹] | Ka (PriA DNA helicase [6]) [M⁻¹]
1 | B1 | 6.1e+06 | -9 | 4.2 | 450000 | -7.7 | 2.8 |  |  |  | 
2 | B2 |  |  |  |  |  |  | 2.2e+07 | 1e+06 | 7.1e+07 | 1.8e+06
